The test is filed under the species Homo sapiens. The test can be described thus: Selectivity index, ratio of IC50 for human recombinant MAO-B to IC50 for human recombinant MAO-A.

For the compound `COc1cc2c3c(nccc3c1)-c1ccccc1C2=O`, the Ratio IC50 is more than 120000.

Source of the values: ChEMBL document CHEMBL1914329, “2D MI-DRAGON: a new predictor for protein-ligands interactions and theoretic-experimental studies of US FDA drug-target network, oxoisoaporphine inhibitors for MAO-A and human parasite proteins” (Eur J Med Chem, 2011).
